Consider one compound from patent US10751288B2, “Dry processed surface coated engineering excipients” (New Jersey Institute of Technology, priority 2016, dated 2020).

The data set is described as follows: Flow function coefficient (FFC), FT4 shear test at 3 kPa. Format: physicochemical. Particulars: Example 20, APIs alone. As to the method:
Unless otherwise noted, bulk density and flowability, i.e., flow function coefficient (FFC), as provided herein is obtained using a Freeman FT4 powder tester (Freeman Technologies Ltd., Worcestershire, UK), where the bulk density and the flow function coefficient (FFC) were defined as the ratio of consolidation stress to the unconfined yield stress. The FFC was evaluated from a shear test under the consolidation pressure of 3 kPa. Detailed procedures for both may be found in Freeman et al., Measuring the flow properties of consolidated, conditioned and aerated powders—A comparative study using a powder rheometer and a rotational shear cell. Powder Technology 174, 25-33 (2007) and Huang et al., Flow and bulk density enhancements of pharmaceutical powders using a conical screen mill: A continuous dry coating device. Chemical Engineering Science 125, 209-224 (2015).
Though FFC is the flowability measure used herein, one of ordinary skill in the art would recognize that other flow indices can be used, such as angle of repose, Carr index, Hausner ratio, flow through orifice testing device, and others. […] A classification of powder flow behavior based on FFC is defined by Schulze, D., Powders and Bulk Solids. Springer (2008) according to the FFC value: “FFC<1—not flowing, 1<FFC<2—very cohesive, 2<FFC<4—cohesive, 4<FFC<10—easy flowing, and FCC>10—free-flowing”.

For the compound `CC(=O)Nc1ccc(O)cc1` [Micronized APAP, micronized acetaminophen], the FFC is given as 1.93.
